From US9387211B2 (Cedars-Sinai Medical Center, priority 2010, dated 2016)

How the values were obtained:
[1] = system: AtT20 cells stably expressing empty vector (V); test: Western blotting, EGF-induced phosphorylation of EGFR, ERK and Akt; details: gefitinib 0.01-10 μM 45 min prior to 5 nM EGF 10 min
[2] = system: AtT20 cells stably expressing wild type EGFR (EGFRWT); test: Western blotting of p53 and cleaved caspase3; details: gefitinib 0.1-10 μM, 48 hours
[3] = system: AtT20 cells stably expressing constitutively active EGFR (EGFRL858R); test: Western blotting, EGF-induced phosphorylation of EGFR, ERK and Akt; details: gefitinib 0.01-10 μM 45 min prior to 5 nM EGF 10 min
[4] = system: AtT20 cells stably expressing wild type EGFR (EGFRWT); test: TUNEL assay (apoptosis); details: gefitinib 0.1-10 μM
[5] = system: AtT20 cells stably expressing wild type EGFR (EGFRWT); test: Western blotting, EGF-induced phosphorylation of EGFR, ERK and Akt; details: gefitinib 0.01-10 μM 45 min prior to 5 nM EGF 10 min
[6] = system: control AtT20 cells, devoid of EGFR (V transfectants); test: In vivo control (V) AtT20 allografts in nude mice; details: oral gefitinib 100 mg/kg/day; mice injected with control AtT20 cells
[7] = system: stable EGFR AtT20 transfectants (EGFR-AtT20); test: EGF induction of phospho-STAT3; format: cell-based, murine; details: gefitinib 0.01-10 μM
[8] = system: EGFRWT tumors (EGFR-overexpressing AtT20 allografts); parameters: species or system mice; details: mouse, in vivo

COc1cc2ncnc(Nc3ccc(F)c(Cl)c3)c2cc1OCCCN1CCOCC1 [gefitinib]
EGF-induced phosphorylation of EGFR, ERK and Akt [1]: not in V transfectants
cleaved caspase3 levels [2]: elevated
p53 levels [2]: elevated
cleaved caspase3 levels ([2]; listed as Gefitinib): enhancing
EGF-induced phosphorylation of EGFR, ERK and Akt [3]: dose dependently suppressed
apoptosis (TUNEL staining) [4]: induced apoptosis
EGF-induced phosphorylation of EGFR, ERK and Akt [5]: dose dependently suppressed
body weight [6]: not altered
fat accumulation [6]: not altered
glucose levels [6]: not altered
serum corticosterone [6]: not altered
EGF induction of phospho-STAT3 [7]: dose dependently attenuated
attenuation of serum corticosterone levels [8]: ~35%
fat accumulation [8]: attenuated
hyperglycemia [8]: attenuated
plasma glucose levels [8]: 351 ± 14 mg/dL
serum ACTH levels [8]: 378 ± 83 ng/mL
weight gain [8]: attenuated
